The values below come from ChEMBL document CHEMBL1137473, “Pyrazole-based cathepsin S inhibitors with improved cellular potency” (Bioorg Med Chem Lett, 2007).

By UniProt entry, the sequences of proteins in these tests, tags left out.
UniProt P25774, whole entry: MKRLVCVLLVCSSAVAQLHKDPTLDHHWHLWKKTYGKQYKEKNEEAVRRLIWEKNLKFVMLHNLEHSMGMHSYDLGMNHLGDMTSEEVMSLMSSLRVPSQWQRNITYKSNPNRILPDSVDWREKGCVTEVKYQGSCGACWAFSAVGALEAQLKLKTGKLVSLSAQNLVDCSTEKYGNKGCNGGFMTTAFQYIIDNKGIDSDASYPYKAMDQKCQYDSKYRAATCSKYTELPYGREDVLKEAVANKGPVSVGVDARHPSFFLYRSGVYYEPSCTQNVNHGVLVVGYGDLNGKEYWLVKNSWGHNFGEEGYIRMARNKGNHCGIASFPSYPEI

Assay [1] has as its target T1, Cathepsin S (Homo sapiens, UniProt P25774). Description: Inhibition of human cathepsin S.
In assay [2] the target is T1, Cathepsin S. Description: Inhibition of cathepsin S in human JY cells by invariant chain degradation assay. It is filed as cell-based.

For the compound `Cc1ccc2[nH]cc(C3CCN(CC(O)Cn4nc(-c5ccc(C(F)(F)F)cc5)c5c4CCN(S(C)(=O)=O)C5)CC3)c2c1` (configuration not stated), on Cathepsin S [1], the midpoint of inhibition, the IC50, lay at 58 nM. Compound `CC(=O)N1CCc2c(c(-c3ccc(C(F)(F)F)cc3)nn2CC(O)CN2CCC(c3c[nH]c4ccccc34)CC2)C1` (configuration not stated) gave an IC50 against Cathepsin S [1] of 72 nM. The same measure, in the same setting: with `CS(=O)(=O)N1CCc2c(c(-c3ccc(C(F)(F)F)cc3)nn2CC(O)CN2CCC(c3c[nH]c4ccc(C#N)cc34)CC2)C1` (configuration not stated) the figure was 21 nM; with `CS(=O)(=O)N1CCc2c(c(-c3ccc(C(F)(F)F)cc3)nn2CC(O)CN2CCC(c3c[nH]c4cc(Cl)ccc34)CC2)C1` (configuration not stated), 29 nM. Take `CS(=O)(=O)N1CCc2c(c(-c3ccc(C(F)(F)F)cc3)nn2CCCN2CCC(c3c(C(=O)NCCN4CCOCC4)sc4cc(F)ccc34)CC2)C1`: the IC50 on Cathepsin S [1] is 39 nM; on Cathepsin S [2], 340 nM. For the compound `CS(=O)(=O)N1CCc2c(c(-c3ccc(C(F)(F)F)cc3)nn2CC(O)CN2CCC(c3c[nH]c4cnccc34)CC2)C1` (configuration not stated), the IC50 against Cathepsin S [1] was found to be 30 nM; against Cathepsin S [2] it was 38 nM. `CS(=O)(=O)N1CCc2c(c(-c3ccc(C(F)(F)F)cc3)nn2CC(O)CN2CCC(c3c[nH]c4cc[n+]([O-])cc34)CC2)C1` (configuration not stated): the values for the IC50 against Cathepsin S [1] and on Cathepsin S [2] were 200 nM and 240 nM, respectively. The corresponding values for `CCNC(=O)c1sc2cc(F)ccc2c1C1CCN(CCCn2nc(-c3ccc(C(F)(F)F)cc3)c3c2CCN(S(C)(=O)=O)C3)CC1` are 37 nM and 1200 nM. The corresponding values for `CS(=O)(=O)N1CCc2c(c(-c3ccc(C(F)(F)F)cc3)nn2CC(O)CN2CCC(c3c[nH]c4ncccc34)CC2)C1` (configuration not stated) are 27 nM and 860 nM. On to `CS(=O)(=O)N1CCc2c(c(-c3ccc(C(F)(F)F)cc3)nn2CC(O)CN2CCC(c3c[nH]c4c(Cl)cccc34)CC2)C1` (configuration not stated), for which, on Cathepsin S [1], the IC50 worked out at 34 nM. Same read-out and setting: with `COc1ccc2[nH]cc(C3CCN(CC(O)Cn4nc(-c5ccc(C(F)(F)F)cc5)c5c4CCN(S(C)(=O)=O)C5)CC3)c2c1` (configuration not stated) the figure was 29 nM. Compound `Cc1[nH]c2ccc(Cl)cc2c1C1CCN(CC(O)Cn2nc(-c3ccc(C(F)(F)F)cc3)c3c2CCN(S(C)(=O)=O)C3)CC1` (configuration not stated) came in with an IC50 on Cathepsin S [1] of 37 nM. With `CCOC(=O)c1ccc2[nH]cc(C3CCN(CC(O)Cn4nc(-c5ccc(C(F)(F)F)cc5)c5c4CCN(S(C)(=O)=O)C5)CC3)c2c1` (configuration not stated), the IC50 at Cathepsin S [1] came to 27 nM; at Cathepsin S [2], 410 nM. The corresponding values for `CS(=O)(=O)N1CCc2c(c(-c3ccc(C(F)(F)F)cc3)nn2CC(O)CN2CCC(c3c[nH]c4cccnc34)CC2)C1` (configuration not stated) are 120 nM and 95 nM. The corresponding values for `CS(=O)(=O)N1CCc2c(c(-c3ccc(C(F)(F)F)cc3)nn2CCCN2CCC(c3c(C(=O)NCCN)sc4cc(F)ccc34)CC2)C1` are 47 nM and 5500 nM.

The compound `CS(=O)(=O)N1CCc2c(c(-c3ccc(C(F)(F)F)cc3)nn2CC(O)CN2CCC(c3c[nH]c4ccc(Cl)cc34)CC2)C1` (configuration not stated) returned an IC50 against Cathepsin S [1] of 44 nM.

`CS(=O)(=O)N1CCc2c(c(-c3ccc(Br)cc3)nn2CC(O)CN2CCC(c3c[nH]c4ccc(Cl)cc34)CC2)C1` (configuration not stated) showed an IC50 against Cathepsin S [1] of 54 nM. On to `CS(=O)(=O)N1CCc2c(c(-c3ccc(C(F)(F)F)cc3)nn2CC(O)CN2CCC(c3c[nH]c4ccncc34)CC2)C1` (configuration not stated), for which the IC50 against Cathepsin S [1] came to 58 nM; against Cathepsin S [2], 25 nM.
